The values that follow come from ChEMBL document CHEMBL1125884, “Synthesis and biochemical studies of 16- or 19-substituted androst-4-enes as aromatase inhibitors” (J Med Chem, 1991).

Chains of the proteins cited; added tags and fusions are not shown. Lines headed by an entry give the natural chain unless they say otherwise; changes in a name come on top.
UniProt P11511: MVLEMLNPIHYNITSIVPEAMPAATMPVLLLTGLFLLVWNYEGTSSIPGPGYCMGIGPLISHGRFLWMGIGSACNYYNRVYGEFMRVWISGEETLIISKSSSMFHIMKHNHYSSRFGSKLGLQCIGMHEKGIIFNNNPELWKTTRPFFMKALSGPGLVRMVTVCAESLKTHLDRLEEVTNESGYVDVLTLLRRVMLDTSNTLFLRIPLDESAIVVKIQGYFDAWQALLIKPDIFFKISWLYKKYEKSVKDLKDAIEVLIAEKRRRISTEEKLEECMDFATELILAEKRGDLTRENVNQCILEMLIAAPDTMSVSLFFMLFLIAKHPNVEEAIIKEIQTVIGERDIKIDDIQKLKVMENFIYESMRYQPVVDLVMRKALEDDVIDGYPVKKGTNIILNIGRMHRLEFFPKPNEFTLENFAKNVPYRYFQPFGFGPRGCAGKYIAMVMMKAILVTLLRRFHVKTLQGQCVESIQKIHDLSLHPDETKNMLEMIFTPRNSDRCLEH

The experiment addresses Aromatase (Homo sapiens, UniProt P11511).

Turning to `C[C@]12CCCC=C1CC[C@@H]1[C@@H]2CC[C@]2(C)C(=O)CC[C@@H]12`, the IC50 was determined as 530 nM.

A word on the IC50: it is the concentration that gives 50% inhibition. A lower IC50 goes with greater potency.
